In US20110281852A1 (priority 2010, published 2011):

System: SERT promoter (5-HTTLPR alleles)
Test: DRL (dual luciferase reporter) assay, SERT promoter activity of 5-HTTLPR alleles in RN46A cells
Type: cell-based
Settings: 100 μM berberine
Text: The PCR reaction to amplify the 5-HTTLPR alleles for sequencing and creation of reporter constructs contained primers different than those used for the genotyping experiment.
These primers amplify a larger region of 5-HTTLPR making it more useful to determine promoter strength. The primer sequences were described previously and are as follows: Forward primer 5′-[…]-3′ (SEQ ID NO:25) and Reverse primer 5′-[…]-3′ (SEQ ID NO:26) (Hu et al., Am J Hum Genet (2006) 78(5):815-826). The PCR products of the six 5-HTTLPR alleles (S, LG, LA, XS, XL-17, and XL-18) were subcloned into the TOPO TA cloning vector pCR2.1-TOPO (Invitrogen) and transformed to One Shot TOP10 competent E. coli cells according to the manufacturer's instructions. In the case of individuals heterozygous for 5-HTTLPR, resulting transformants were screened for the presence of the correct insert using the restriction enzyme EcoR I.
The resulting constructs, created and sequenced, in the pCR2.1-TOPO vector (S, LG, LA, XS, XL-17, and XL-18 alleles) were subcloned to the luciferase reporter vector pGL4.10 [luc2] (Promega) using standard molecular techniques. Additionally, each allele was cloned into pGL4.10 [luc2] in the backwards orientation to ensure that transcriptional effects were the result of consensus promoter sequences. […] The co-transfection with the 5-HTTLPR pGL4.10 constructs (firefly luciferase) and the pRL-SV40 vector (renilla luciferase) to the RN46A raphe-derived cell line using Lipofectamine 2000 (Invitrogen) was described previously. Expression was measured using the Dual-Luciferase Reporter Assay System (Promega) 24 h after transfection with passive lysis buffer.
Relative light units (RLU) for both the firefly and renilla luciferase was measured using a 20/20^n Luminometer (Turner Biosystems, Sunnyvale Calif. 94085) and the ratio between the firefly RLU to renilla RLU in each sample was determined. The values were all normalized to the (S) allele.

COc1ccc2cc3[n+](cc2c1OC)CCc1cc2c(cc1-3)OCO2.[Cl-] [berberine, Berberine (Chloride Form)]
increase of SERT promoter activity vs vehicle (LA allele): 100.4% | increase of SERT promoter activity vs vehicle (LG allele): 106.9% | increase of SERT promoter activity vs vehicle (S allele): 67% | increase of SERT promoter activity vs vehicle (XL17 allele): 26.2% | increase of SERT promoter activity vs vehicle (XL18 allele): 82% | increase of SERT promoter activity vs vehicle (XS allele): 128.7%
